# Laboratory results reported in ChEMBL document CHEMBL2151039, “Discovery and development of α7 nicotinic acetylcholine receptor modulators” (J Med Chem, 2011).
# Sequences of proteins named here, by UniProt entry; tags and fusion partners are left off.
# UniProt P36544, whole entry: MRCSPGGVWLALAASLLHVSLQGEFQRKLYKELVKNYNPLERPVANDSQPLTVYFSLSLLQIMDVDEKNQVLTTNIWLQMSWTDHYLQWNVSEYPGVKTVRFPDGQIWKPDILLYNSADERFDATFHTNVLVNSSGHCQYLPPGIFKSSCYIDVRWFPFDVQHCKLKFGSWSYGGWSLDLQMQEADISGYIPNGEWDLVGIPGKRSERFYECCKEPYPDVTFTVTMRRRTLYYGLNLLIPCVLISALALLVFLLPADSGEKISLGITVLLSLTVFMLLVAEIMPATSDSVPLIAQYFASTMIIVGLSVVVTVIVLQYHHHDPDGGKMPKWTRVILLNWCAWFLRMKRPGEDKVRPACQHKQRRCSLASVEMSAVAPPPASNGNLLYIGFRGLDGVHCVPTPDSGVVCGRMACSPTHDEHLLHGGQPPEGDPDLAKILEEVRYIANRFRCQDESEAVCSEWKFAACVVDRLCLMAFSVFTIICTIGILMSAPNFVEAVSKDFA
# Assays:
# [1] = biological target: T1, Neuronal acetylcholine receptor subunit alpha-7 (Homo sapiens, UniProt P36544); assay: Agonist activity at human recombinant alpha7 nAChR expressed in human GH3 cells by calcium flux assay relative to epibatidine; format: functional, cell-based
# [2] = biological target: T1, Neuronal acetylcholine receptor subunit alpha-7; assay: Agonist activity at human alpha7 nAChR expressed in Xenopus oocytes assessed as induction of inward current relative to control; format: functional, cell-based; conditions: Oocyte
# Homo sapiens [3] = species on record: Homo sapiens; assay: Selectivity ratio of alpha3beta4 nAChR to human alpha7 nAChR by ion flux assay
# Homo sapiens [4] = species on record: Homo sapiens; assay: Selectivity ratio of alpha4beta2 nAChR to human alpha7 nAChR by ion flux assay
# Homo sapiens [5] = species on record: Homo sapiens; assay: Selectivity ratio of Ki human 5HT3 receptor to Ki for human alpha7 nAchR
smiles,measurement,setting,value
C[C@H](OC(=O)N[C@@H]1CN2CCC1CC2)c1ccccc1F,Emax,[1],85%
same,Emax,[2],55%
same,Selectivity ratio,Homo sapiens [3],200
same,Selectivity ratio,Homo sapiens [4],200
same,Ratio Ki,Homo sapiens [5],200
